From patent US20130096098A1, “Light Insensitive Silver(i) Cyanoximates As Antimicrobial Agents For Indwelling Medical Devices” (MISSOURI STATE UNIVERSITY, priority 2011, published 2013)

Assay: UV-light stability studies, low-pressure Hg lamp 254 nm
Type: physicochemical
Description: Photophysical Measurements. Light sensitivity and stability of synthesized Ag(I) cyanoximates was studied at 296 K using a low-pressure Hg lamp with >85% output at λmax=254 nm where the intensity of light was measured with a UVX radiometer (UK). After 4 min warm-up time, this lamp generated a steady flux of UV-radiation that was equal to the dose of 10.13 J/cm^2 within 30 min. Prior to these investigations, complexes were thoroughly dried under high vacuum (<10^−4 Torr) and ground into a powder using an agate mortar. This made it easy to apply these compounds to paper, adhesive tape, or cardboard. Samples of complex were spread on white cardboard with an exposed circular area (via a mask) of ˜3 cm. The radiation source was positioned 1 cm from the sample. A pristine white silver chloride prepared in the dark was used as a control substance to access the light stability of silver(I) cyanoximates. Digital pictures of irradiated samples were taken every 30 min using a stationary digital camera (Kodak DX7630; 6.1 Mpx), and native images were cropped to square shape without any contrast or brightness editing using Samsung Digimax Viewer 2.0 software.

Substance: Silver(I) α-Oximido-(2-pivaloyl)acetonitrile [Ag(PiCO)]
- stability toward short wavelength UV-radiation: resistance
